This passage reports Activity results from ChEMBL document CHEMBL3808291, “Bifunctional Peptide-Based Opioid Agonist-Nociceptin Antagonist Ligands for Dual Treatment of Acute and Neuropathic Pain” (J Med Chem, 2016).

Protein sequences, listed by entry. Tags and fused reporters are not part of them.
UniProt P35372, whole entry: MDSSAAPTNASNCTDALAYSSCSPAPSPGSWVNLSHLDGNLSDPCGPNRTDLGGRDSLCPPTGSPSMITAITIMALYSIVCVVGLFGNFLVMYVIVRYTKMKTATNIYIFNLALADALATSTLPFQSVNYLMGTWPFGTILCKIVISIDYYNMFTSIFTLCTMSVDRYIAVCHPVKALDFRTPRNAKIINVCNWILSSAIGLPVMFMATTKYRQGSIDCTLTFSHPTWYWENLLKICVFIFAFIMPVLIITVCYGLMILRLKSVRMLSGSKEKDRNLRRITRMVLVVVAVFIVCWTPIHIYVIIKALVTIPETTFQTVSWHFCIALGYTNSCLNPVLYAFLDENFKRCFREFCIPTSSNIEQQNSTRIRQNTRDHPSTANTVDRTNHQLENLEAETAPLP

The test addresses Mu-type opioid receptor (Homo sapiens) (UniProt P35372). Put plainly: Agonist activity at human mu opioid receptor expressed in CHO cell membrane by [35S]GTPgammaS binding assay relative to control.

In the case of `O=C1Cc2ccccc2N1C1CCN(C2CCC3CCCc4cccc2c43)CC1` (stereo unspecified), the Activity was < 20%.
